Assay results published in PMC8495968, “Towards optimizing peptide-based inhibitors of protein–protein interactions: predictive saturation variation scanning (PreSaVS)” (RSC Chemical Biology, 2021).

Protein sequences, listed by entry. Tags and fused reporters are not part of them. Residues count along the entry.
SUMO-1 (Homo sapiens), P63165, UniProt P63165, 2-97: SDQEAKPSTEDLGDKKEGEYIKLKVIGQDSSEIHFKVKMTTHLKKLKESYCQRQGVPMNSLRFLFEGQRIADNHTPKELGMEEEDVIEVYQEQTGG

Molecular target: SUMO-1 (Homo sapiens), P63165
Test: fluorescence anisotropy competition
Details: modification not given

Binder: DNEKECIIVWEKK [SIM2705–2717 2705-2717, P49792]
- IC50: 21.9 µM
